# Yeast mating assay 2: variants of the scFv Ab-91

All variants were tested on one target, the spike HR2 peptide PDVDLGDISGINAS (SARS-CoV-2).

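The parent was found by panning a naive human phage display library on the peptide. Library AAYL51 holds single substitutions and randomly drawn double and triple substitutions in the CDRs. In AlphaSeq, yeast of one mating type display the scFv and yeast of the other type display the target. The frequency of each diploid, read from paired DNA barcodes, reflects how well the two displayed proteins bind. Each replicate has its own calibration line, from reference interactions of the BCL2 family. Mating was done three times.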

The variants keep the light chain, the linker and the frameworks of Ab-91 (scFv order VL, a 15-residue (Gly4Ser)3 linker, VH).
VL: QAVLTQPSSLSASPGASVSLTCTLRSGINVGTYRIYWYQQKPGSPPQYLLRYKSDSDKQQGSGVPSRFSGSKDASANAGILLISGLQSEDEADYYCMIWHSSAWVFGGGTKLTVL
VH: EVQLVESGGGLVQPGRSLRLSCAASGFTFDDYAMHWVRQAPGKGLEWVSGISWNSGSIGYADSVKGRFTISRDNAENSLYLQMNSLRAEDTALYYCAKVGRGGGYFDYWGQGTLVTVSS

Substitutions are numbered in sequence along the VH above, starting at 1 (not Kabat). Every variant below is changed at S57 of the VH (sequential numbering). Values are apparent Kd, the geometric mean of the replicates that gave a signal; lower means stronger binding. Where no diploid with the target was found in any replicate, the entry reads "nd": below detection, most likely a poor binder, though not proof of it. Three control strains display no target. For library AAYL51, 21% of the pairings with them gave a signal, with a median of 34 µM and one signal in twenty below 1.8 µM, so weak values seen in few replicates may be background.

For G56Y S57L I58C, the assay gave 41 nM (3 of 3 replicates). With D31A S57D the result was 3.4 nM (3 of 3 replicates). With D31Q N54M S57N the result was 2.4 µM (2 of 3 replicates). Variant Y32S G56M S57M showed 1.4 µM (3 of 3 replicates). For T28P W53R S57A, the assay gave nd (0 of 3 replicates). With S57W R101V G102M the result was nd (0 of 3 replicates). Variant S57L V64H G102W showed 850 µM (1 of 3 replicates). Variant S57H G104D F106D gave 27 µM (1 of 3 replicates). With S57Q V99L R101C the result was nd (0 of 3 replicates).

With Y32E A33G S57K the result was 120 µM (1 of 3 replicates). Variant T28P D30S S57W showed nd (0 of 3 replicates). For G50F S57K V99Y, the assay gave 88 µM (2 of 3 replicates). With Y32M W53R S57N the result was nd (0 of 3 replicates). For F27P S57Y A61D, the assay gave 90 µM (2 of 3 replicates). Variant N54Y S57T A61R gave nd (0 of 3 replicates). For D30A N54I S57V, the assay gave 1.4 µM (2 of 3 replicates). Variant S52I G56Y S57L showed 81 µM (2 of 3 replicates). Variant S57V G59A F106S gave 15 µM (3 of 3 replicates).

With I51A G56H S57P the result was 26 µM (2 of 3 replicates). With S57M A61V the result was 350 nM (3 of 3 replicates). With S55P S57V V99Q the result was 6.5 µM (2 of 3 replicates). Variant S57W G100I F106E gave nd (0 of 3 replicates). Variant S57A G104N gave 86 µM (2 of 3 replicates). With I51K S57H G103S the result was nd (0 of 3 replicates). Variant S57C G59F Y105F gave 29 µM (2 of 3 replicates). Variant H35C S57V D107V showed 2.2 µM (1 of 3 replicates). Variant S57D I58D V99K gave nd (0 of 3 replicates).

Variant T28F S57D I58S gave 16 nM (3 of 3 replicates). For S57V A61I V99R, the assay gave nd (0 of 3 replicates). For F27T S57G G59Q, the assay gave nd (0 of 3 replicates). For T28W S52H S57Q, the assay gave nd (0 of 3 replicates). For D30K M34T S57D, the assay gave 160 µM (2 of 3 replicates). Variant A33T S57I G103V showed nd (0 of 3 replicates). Variant S52L S57G V64A gave nd (0 of 3 replicates). Variant S57C I58C D62K showed 74 µM (2 of 3 replicates). Variant T28N H35K S57A showed nd (0 of 3 replicates).

Variant D30E W53F S57D showed 11 nM (3 of 3 replicates). Variant G50Y S57E K65E showed nd (0 of 3 replicates). Variant I51D S57G Y108E showed nd (0 of 3 replicates). Variant G50W S57R showed 120 µM (1 of 3 replicates). Variant D30I I51W S57E gave 1.9 µM (1 of 3 replicates). Variant G56A S57T Y60W gave 240 µM (1 of 3 replicates). With T28Q S57P Y105K the result was 3.6 µM (1 of 3 replicates). For G26S S57M Y60S, the assay gave 560 nM (1 of 3 replicates). With D31W S57M V99T the result was 310 nM (3 of 3 replicates).

Variant S57W gave 13 µM (2 of 3 replicates). For S57Y R101E G104Y, the assay gave 4.5 µM (2 of 3 replicates). With S57I R101A G103C the result was 3.8 µM (1 of 3 replicates). Variant H35G S57G showed 39 µM (3 of 3 replicates). Variant D31Q S57G V99H gave 15 µM (2 of 3 replicates).

For reference, 4 entries of the list once more:

The variant S57W G100I F106E showed nd (0 of 3 replicates).
The variant F27P S57Y A61D showed 90 µM (2 of 3 replicates).
The variant S57V G59A F106S showed 15 µM (3 of 3 replicates).
The variant Y32S G56M S57M showed 1.4 µM (3 of 3 replicates).

Reference: Engelhart et al. 2022, doi:10.1038/s41597-022-01779-4. File: FLAb, binding data.